Values quoted from earlier work as cited in publication PMC4217481 (Nuclear medicine and biology, 2013).

Test system: bone
Details: mouse, in vivo

^18F-FDG
bone uptake: 2.49 %ID/g
